## Apparent affinities of Ab-14 variants for a coronavirus HR2 peptide

Data: MIT Lincoln Laboratory AlphaSeq set, Engelhart et al. 2022, doi:10.1038/s41597-022-01779-4, as distributed in FLAb.

Target peptide (SARS-CoV-2 spike, HR2 region): PDVDLGDISGINAS

Parent scFv Ab-14: VH joined to VL by three GGGGS repeats. Changes lie in the heavy chain CDRs alone.
VH: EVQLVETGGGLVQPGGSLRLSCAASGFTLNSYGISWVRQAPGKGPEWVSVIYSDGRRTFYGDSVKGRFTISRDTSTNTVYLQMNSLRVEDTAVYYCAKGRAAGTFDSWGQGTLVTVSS
VL: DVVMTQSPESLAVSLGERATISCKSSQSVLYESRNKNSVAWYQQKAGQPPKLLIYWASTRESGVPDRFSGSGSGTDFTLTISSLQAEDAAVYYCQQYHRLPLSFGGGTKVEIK

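The parent was found by panning a naive human phage display library on the peptide. AAYL49 was designed without a model: most single CDR substitutions and a random sample of double and triple ones. Affinity was read by AlphaSeq, a pooled yeast mating assay with surface-displayed partners. Binding brings cells together so that they mate, and sequencing counts the barcode pairs among the diploids. Each replicate has its own calibration line, from reference interactions of the BCL2 family. Mating was done three times.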

Each variant is given by its three heavy chain CDRs, as the data file delimits them; those of the parent are GFTLNSYGIS, VIYSDGRRTFYGDSVK, GRAAGTFDS. Values are log10 of the apparent Kd in nM; lower means stronger binding. Replicates are averaged; those with no signal do not enter the mean. An entry "nd" has no value in the source: the pair was not observed among the diploids in any replicate. This suggests poor binding but is not conclusive.

The variant GFTLASYGIS, VIYSDGRRTFYGDSVK, GRIAGTFDD showed 2.74 (1 of 3 replicates).
The variant GFTLNSYGIS, VIYSDGGRTFYPDSVK, GRPAGTFDS showed 4.31 (1 of 3 replicates).
The variant GFALNSYGIL, VIYSDGRRGFYGDSVK, GRAAGTFDS showed 4.43 (2 of 3 replicates).
The variant GFTLNSYGIS, EIYSIGRRTFYGDSVK, GRAAGTFIS showed 4.10 (1 of 3 replicates).
The variant GFTLNSCGIS, VIASDGRRTFYGDSVK, GRATGTFDS showed nd (0 of 3 replicates).
The variant GFTLNSYGKS, VIYSDGERTFYGDSVK, GRAAGKFDS showed nd (0 of 3 replicates).
The variant IFTLNSYGIS, VIYSDFRRTQYGDSVK, GRAAGTFDS showed nd (0 of 3 replicates).
The variant GFTLNLYGIS, VIYSDGRRTFYHDSVK, GRAAGTFDS showed 0.77 (3 of 3 replicates).
The variant GFTLNSYGIS, VIQSDGRRTFYGTSVK, GRAAYTFDS showed 2.97 (1 of 3 replicates).
The variant GFTLYSYGIS, VIYSDGRRTFYGDSVK, GRAAGTMDS showed nd (0 of 3 replicates).
The variant GFTLNSVGIS, IIYSDGRRTFYGDSVK, GRAAGTFDL showed 4.02 (2 of 3 replicates).
The variant GFTLNSRPIS, VIYSDGRRTFYGDSVK, GRAAGTFDS showed 5.04 (2 of 3 replicates).
The variant GFTLNSYGIS, VIYSLGRRTFYGDSVK, GREAGKFDS showed nd (0 of 3 replicates).
The variant GFTLNSYGIS, VIHSDGRRTFYRDSVK, GRAAFTFDS showed nd (0 of 3 replicates).
The variant GFTLNEYGIS, VIYSDIRHTFYGDSVK, GRAAGTFDS showed 3.69 (1 of 3 replicates).
The variant GFTLNSYGIS, AINSDGRRTFYGDSVK, GRAAGTFDA showed 5.03 (2 of 3 replicates).
The variant GRTLNSYGIS, VIYSDGQRTFYGDSDK, GRAAGTFDS showed 4.34 (1 of 3 replicates).
The variant GFTLNSYGIS, VIYSDGRRTFYDESVV, GRAAGTFDS showed 1.27 (3 of 3 replicates).

Further variants, results first:

3.36 (1 of 3 replicates): GFTLNSYGIS, WIESDGRRTFYGPSVK, GRAAGTFDS.
5.35 (3 of 3 replicates): GFTLNSYGIS, VIYADGRRTFYGDSVK, GRAYGTFDS.
4.35 (2 of 3 replicates): GFTLNSYGIS, VIYSDGRREFYDDSVK, GRAAPTFDS.
2.27 (2 of 3 replicates): GTTLNSYGIS, VIYSDGRRTFYGDSVK, GRLRGTFDS.
nd (0 of 3 replicates): GFYLNSYGIV, VIYSDGRRTFYGDSVK, GRAAWTFDS.
4.14 (2 of 3 replicates): GGTLNKYGIS, VILSDGRRTFYGDSVK, GRAAGTFDS.
3.17 (1 of 3 replicates): GFTLNSYGIS, VIYDDGTRTFYGDSVK, GRAWGTFDS.
5.23 (2 of 3 replicates): GFTLNSYGLS, VIYSDGRRTFYGDSVH, GRAAGTQDS.
4.57 (1 of 3 replicates): GFTLNSYGIS, VNYSDGRYTFYGDSVK, GYAAGTFDS.
nd (0 of 3 replicates): GFTLNSRGIS, VIYSDGRRTFYGSSVK, GRACGTFDS.
3.07 (1 of 3 replicates): GFTLNSKNIS, VIYSDVRRTFYGDSVK, GRAAGTFDS.
nd (0 of 3 replicates): GFTLNSEGIS, VIYWDGRRTFYGDSVC, GRAAGTFDS.
nd (0 of 3 replicates): GATLNSYGIS, VIYSDGRRTFYGESVK, GRAAQTFDS.
nd (0 of 3 replicates): GFTLNSYEIS, VIYSDGRRTFYGDSVK, GRAAGTFRS.
4.08 (2 of 3 replicates): GFTLNSYGIS, VIYSWGRRTFYGDSVK, GCAAGTFDE.
4.53 (2 of 3 replicates): GFTLNSYGIS, VIYSDGRWTFYYDSVK, GRAAGTFDS.
nd (0 of 3 replicates): GFTLNSYGII, VIYSDGRVTFYEDSVK, GRAAGTFDS.
3.93 (1 of 3 replicates): GFTLNSWGIS, VIYEDGRRTFYGDSVK, GVAAGTFDS.
nd (0 of 3 replicates): GVTLNSYGIS, VIYSDGRRTFYGDSCK, GRAAGYFDS.

For reference, 2 entries of the list once more:

CDR-H1,CDR-H2,CDR-H3,"log10 Kd (nM), mean",seen in
GFTLYSYGIS,VIYSDGRRTFYGDSVK,GRAAGTMDS,nd,0 of 3
GFTLNSYGIS,VNYSDGRYTFYGDSVK,GYAAGTFDS,4.57,1 of 3

Background: pairings of library AAYL49 with three empty control strains gave a value in 15% of cases (median 4.06, 5th percentile 2.83). Values in that range, when seen in few replicates, are hard to tell from nonspecific mating. For reference, the parent read 0.65 as the reference entry and 4.11 (one replicate of three) as a member of this library.